# Test: clinical safety and tolerability (TEAEs, SAEs, DLTs, QTc), Phase 1 study
smiles,measurement,setting,value
CNc1nc(NC2CCN(Cc3ccc4c(cc(C#N)n4C[C@H](C)N4CCN(S(C)(=O)=O)CC4)c3C)CC2)c2cc(CC(F)(F)F)sc2n1,≥Grade 3 TEAEs (Ziftomenib-Related),Ph1a 400 mg N=5,1 (20.0) %
same,"Anemia, ≥Grade 3 TEAE (All Causality)",Ph1a 600 mg N=5,3 (60.0) %
same,"Decreased appetite, ≥Grade 3 TEAE (All Causality)",Ph1a 600 mg N=5,0%
same,"Febrile neutropenia, ≥Grade 3 TEAE (All Causality)",Ph1a 600 mg N=5,1 (20.0) %
same,"Neutropenia, ≥Grade 3 TEAE (All Causality)",Ph1a 600 mg N=5,0%
same,"Pneumonia, ≥Grade 3 TEAE (All Causality)",Ph1a 600 mg N=5,0%
same,SAEs (All Causality),Ph1a 600 mg N=5,4 (80.0) %
same,SAEs (Ziftomenib-Related),Ph1a 600 mg N=5,0 (0.0) %
same,TEAEs (All Causality),Ph1a 600 mg N=5,4 (80.0) %
same,"Thrombocytopenia, ≥Grade 3 TEAE (All Causality)",Ph1a 600 mg N=5,3 (60.0) %
same,≥Grade 3 TEAEs (All Causality),Ph1a 600 mg N=5,4 (80.0) %
same,≥Grade 3 TEAEs (Ziftomenib-Related),Ph1a 600 mg N=5,1 (20.0) %
same,"Anemia, ≥Grade 3 TEAE (All Causality)",Ph1a 800 mg N=11,2 (18.2) %
same,"Decreased appetite, ≥Grade 3 TEAE (All Causality)",Ph1a 800 mg N=11,1 (9.1) %
same,"Febrile neutropenia, ≥Grade 3 TEAE (All Causality)",Ph1a 800 mg N=11,1 (9.1) %
same,"Neutropenia, ≥Grade 3 TEAE (All Causality)",Ph1a 800 mg N=11,3 (27.3) %
same,"Pneumonia, ≥Grade 3 TEAE (All Causality)",Ph1a 800 mg N=11,3 (27.3) %
same,SAEs (All Causality),Ph1a 800 mg N=11,(81.8) %
same,SAEs (Ziftomenib-Related),Ph1a 800 mg N=11,(0.0) %
same,TEAEs (All Causality),Ph1a 800 mg N=11,(100.0) %
same,"Thrombocytopenia, ≥Grade 3 TEAE (All Causality)",Ph1a 800 mg N=11,0%
same,≥Grade 3 TEAEs (All Causality),Ph1a 800 mg N=11,(90.9) %
same,≥Grade 3 TEAEs (Ziftomenib-Related),Ph1a 800 mg N=11,(18.2) %
same,dose-limiting toxicity,Ph1a 1000 mg,differentiation syndrome
same,SAEs (All Causality),Ph1a 1000 mg N=1,1 (100.0) %
same,SAEs (Ziftomenib-Related),Ph1a 1000 mg N=1,1 (100.0) %
same,TEAEs (All Causality),Ph1a 1000 mg N=1,1 (100.0) %
same,≥Grade 3 TEAEs (All Causality),Ph1a 1000 mg N=1,1 (100.0) %
same,≥Grade 3 TEAEs (Ziftomenib-Related),Ph1a 1000 mg N=1,1 (100.0) %
same,"Decreased appetite, TEAE ≥Grade 3",Ph1a N=30,10.0%
same,"Pneumonia, TEAE ≥Grade 3",Ph1a N=30,23.3%
same,"Pulmonary embolism, ≥Grade 3 ziftomenib-related TEAE",Ph1a N=30,6.7%
same,SAEs (All Causality),Ph1a all patients N=30,24 (80.0) %
same,SAEs (Ziftomenib-Related),Ph1a all patients N=30,4 (13.3) %
same,TEAEs (All Causality),Ph1a all patients N=30,29 (96.7) %
same,change in rate or severity of AEs with increasing dose,Ph1a and Ph1b,no significant increase in rate or severity of AEs with increasing dose
same,most frequent TEAEs reported by ≥15% of patients,Ph1a and Ph1b,"diarrhea, anemia, nausea, increased blood creatinine, fatigue, pneumonia, increased alanine aminotransferase, arthralgia, increased aspartate aminotransferase, decreased appetite, peripheral edema, pyrexia, anemia, epistaxis, febrile neutropenia, hypomagnesemia, and differentiation syndrome"
same,relationship between dose and rate of TEAEs,Ph1a and Ph1b,no apparent relationship
same,"safety and tolerability, 200 mg vs 600 mg",Ph1a and Ph1b,comparable safety and tolerability
same,SAEs (All Causality),Ph1a+1b KMT2A-r 200 mg N=14,12 (85.7) %
same,SAEs (Ziftomenib-Related),Ph1a+1b KMT2A-r 200 mg N=14,5 (35.7) %
same,TEAEs (All Causality),Ph1a+1b KMT2A-r 200 mg N=14,14 (100.0) %
same,≥Grade 3 TEAEs (All Causality),Ph1a+1b KMT2A-r 200 mg N=14,14 (100.0) %
same,≥Grade 3 TEAEs (Ziftomenib-Related),Ph1a+1b KMT2A-r 200 mg N=14,7 (50.0) %
same,SAEs (All Causality),Ph1a+1b KMT2A-r 600 mg N=10,5 (50.0) %
same,SAEs (Ziftomenib-Related),Ph1a+1b KMT2A-r 600 mg N=10,2 (20.0) %
same,TEAEs (All Causality),Ph1a+1b KMT2A-r 600 mg N=10,9 (90.0) %
same,≥Grade 3 TEAEs (All Causality),Ph1a+1b KMT2A-r 600 mg N=10,6 (60.0) %
same,≥Grade 3 TEAEs (Ziftomenib-Related),Ph1a+1b KMT2A-r 600 mg N=10,2 (20.0) %
same,SAEs (Ziftomenib-Related),Ph1a+1b KMT2A-r all N=24,7 (29.2) %
same,TEAEs (All Causality),Ph1a+1b KMT2A-r all N=24,23 (95.8) %
same,≥Grade 3 TEAEs (All Causality),Ph1a+1b KMT2A-r all N=24,20 (83.3) %
same,≥Grade 3 TEAEs (Ziftomenib-Related),Ph1a+1b KMT2A-r all N=24,9 (37.5) %
same,SAEs (All Causality),Ph1a+1b NPM1-m 200 mg N=6,4 (66.7) %
same,SAEs (Ziftomenib-Related),Ph1a+1b NPM1-m 200 mg N=6,1 (16.7) %
same,TEAEs (All Causality),Ph1a+1b NPM1-m 200 mg N=6,6 (100.0) %
same,≥Grade 3 TEAEs (All Causality),Ph1a+1b NPM1-m 200 mg N=6,5 (83.3) %
same,≥Grade 3 TEAEs (Ziftomenib-Related),Ph1a+1b NPM1-m 200 mg N=6,1 (16.7) %
same,SAEs (All Causality),Ph1a+1b NPM1-m 600 mg N=11,5 (45.5) %
same,SAEs (Ziftomenib-Related),Ph1a+1b NPM1-m 600 mg N=11,4 (36.4) %
same,TEAEs (All Causality),Ph1a+1b NPM1-m 600 mg N=11,9 (81.8) %
same,≥Grade 3 TEAEs (All Causality),Ph1a+1b NPM1-m 600 mg N=11,7 (63.6) %
same,≥Grade 3 TEAEs (Ziftomenib-Related),Ph1a+1b NPM1-m 600 mg N=11,6 (54.5) %
same,SAEs (Ziftomenib-Related),Ph1a+1b NPM1-m all N=17,5 (29.4) %
same,TEAEs (All Causality),Ph1a+1b NPM1-m all N=17,15 (88.2) %
same,≥Grade 3 TEAEs (All Causality),Ph1a+1b NPM1-m all N=17,12 (70.6) %
same,≥Grade 3 TEAEs (Ziftomenib-Related),Ph1a+1b NPM1-m all N=17,7 (41.2) %
same,patients reporting at least one TEAE,"Ph1a, 11 of 11 patients as printed",100%
same,"trends in clinical laboratory assessments, vital signs, or ECGs",Ph1b,no clinically meaningful trends
same,"Increased alanine aminotransferase, ziftomenib-related SAE",Ph1b 200 mg,1 patient
same,"Pleuritic chest pain, ziftomenib-related SAE",Ph1b 200 mg,1 patient
same,patients requiring dose interruptions,Ph1b 200 mg,41.2%
same,patients requiring treatment discontinuation,Ph1b 200 mg,11.8%
same,"Leukocytosis, TEAE ≥Grade 3",Ph1b 200 mg N=12,17%
same,"Respiratory failure, TEAE ≥Grade 3",Ph1b 200 mg N=12,17%
same,SAEs (All Causality),Ph1b 200 mg N=17,(82.4) %
same,TEAEs (All Causality),Ph1b 200 mg N=17,(100.0) %
same,≥Grade 3 TEAEs (All Causality),Ph1b 200 mg N=17,(94.1) %
same,"Cardiomyopathy, ziftomenib-related SAE",Ph1b 600 mg,1 patient
same,"Diarrhea, ziftomenib-related SAE",Ph1b 600 mg,1 patient
same,"Febrile neutropenia, ziftomenib-related SAE",Ph1b 600 mg,2 patients
same,"Leukocytosis, ziftomenib-related SAE",Ph1b 600 mg,1 patient
same,"Myocarditis, ziftomenib-related SAE",Ph1b 600 mg,1 patient
same,"Worsening dyspnea, ziftomenib-related SAE",Ph1b 600 mg,1 patient
same,patients requiring dose interruptions,Ph1b 600 mg,31.6%
same,patients requiring treatment discontinuation,Ph1b 600 mg,10.5%
same,"Diarrhea, TEAE ≥Grade 3",Ph1b 600 mg N=12,17%
same,"Leukocytosis, TEAE ≥Grade 3",Ph1b 600 mg N=12,17%
same,"Leukopenia, TEAE ≥Grade 3",Ph1b 600 mg N=12,17%
same,SAEs (All Causality),Ph1b 600 mg N=19,9 (47.4) %
same,TEAEs (All Causality),Ph1b 600 mg N=19,17 (89.5) %
same,≥Grade 3 TEAEs (All Causality),Ph1b 600 mg N=19,12 (63.2) %
same,≥Grade 3 TEAEs Occurring in >10% of Participants,Ph1b NPM1-m 200 mg n=4,0
same,≥Grade 3 TEAEs Occurring in >10% of Participants,Ph1b NPM1-m 600 mg n=20,0
same,"Leukocytosis, TEAE ≥Grade 3",Ph1b first 24 patients,17%
same,"Leukopenia, TEAE ≥Grade 3",Ph1b first 24 patients,13%
same,"Platelet count decreased, TEAE ≥Grade 3",Ph1b first 36 patients,11.1%
same,"Pneumonia, TEAE ≥Grade 3",Ph1b first 36 patients,11.1%
same,TEAE requiring dose reduction,Ph1b first 36 patients,No patient reported a TEAE requiring dose reduction
same,"Alanine aminotransferase increased, Grade 3 or above TEAE","all patients, all doses N=83",5 (6.0) %
same,"Anemia, Grade 3 or above TEAE","all patients, all doses N=83",20 (24.1) %
same,"Diarrhea, Grade 3 or above TEAE","all patients, all doses N=83",4 (4.8) %
same,"Febrile neutropenia, Grade 3 or above TEAE","all patients, all doses N=83",18 (21.7) %
same,"Hyperglycemia, Grade 3 or above TEAE","all patients, all doses N=83",5 (6.0) %
same,"Hypoxia, Grade 3 or above TEAE","all patients, all doses N=83",7 (8.4) %
same,"Leukocytosis, Grade 3 or above TEAE","all patients, all doses N=83",5 (6.0) %
same,"Neutropenia, Grade 3 or above TEAE","all patients, all doses N=83",8 (9.6) %
same,"Neutrophil count decreased, Grade 3 or above TEAE","all patients, all doses N=83",6 (7.2) %
same,Patients with Grade 3 or above TEAE,"all patients, all doses N=83",76 (91.6) %
same,"Platelet count decreased, Grade 3 or above TEAE","all patients, all doses N=83",6 (7.2) %
same,"Pneumonia, Grade 3 or above TEAE","all patients, all doses N=83",16 (19.3) %
same,"Sepsis, Grade 3 or above TEAE","all patients, all doses N=83",10 (12.0) %
same,"Thrombocytopenia, Grade 3 or above TEAE","all patients, all doses N=83",11 (13.3) %
same,"additional, less common adverse events possibly related to DS",almost exclusively in KMT2A-r patients,"alanine aminotransferase increase, pleuritic chest pain, myocarditis"
same,drug-drug interactions,clinical,No significant drug-drug interactions were noted
same,QTc prolongation attributable to ziftomenib,cutoff 30 Aug 2023,not detected
same,clinically significant cytopenias in patients achieving CR or CRh,cutoff 30 Aug 2023,not seen
same,drug-induced QTc prolongation,overall study,No evidence was observed

# From patent US20260382613A1, “METHODS OF TREATING ACUTE LEUKEMIA” (published 2026)
